Experimental data from patent US20220016251A1, “LYMPHATIC MEDIATED TRANSPORT-BASED TRIGLYCERIDE PRODRUG, AND PREPARATION METHOD THEREFOR” (SHENYANG PHARMACEUTICAL UNIVERSITY, priority 2019, published 2022).

Settings: rat
Description: The intestinal permeability of a docetaxel-triglyceride prodrug is investigated by in vivo intestinal perfusion in rats. […] In order to investigate the effect of intestinal pancreatic lipase digestion on the absorption of the prodrug, a pancreatic lipase inhibitor orlistat is administrated half an hour in advance.

Substance: Docetaxel-C5(Et)-Triglyceride Prodrug [DTX-5C(Et)-TG]
- permeability coefficient Ka, increase compared with docetaxel solution: 1.73 times
